Reference: PMC8675330, “Encapsulated Escitalopram and Paroxetine Intranasal Co-Administration: In Vitro/In Vivo Evaluation” (Frontiers in Pharmacology, 2021)

Experiment: In vivo pharmacokinetics in plasma, brain and lung after IV, IN and IN + BorNLC co-administration
Design: species or system CD-1 mice
Conditions: escitalopram; IN free drug vs IV; 2.38 mg/kg
Procedure: Healthy adult CD-1 mice (25–30 g) were acquired from Charles River Laboratories (L’Arbresle, France) and accommodated in a relative humidity of 55 ± 5%, a controlled temperature of 20 ± 2°C, and reversed 12 h light–dark cycles. The studies were always performed in the dark phase (active phase between 08h00 and 20h00). A period of at least 7 days was considered for the animals to become familiarized with the environment. Animals had ad libitum access to food (4RF21, Mucedola®, Italy) and tap water during the entire experiment period.
Before treatment, animals were anesthetized by intraperitoneal administration of a mixture of ketamine (100 mg/kg) and xylazine (10 mg/kg) to keep them immobile during IN or IV administration. Animals were randomly divided into 3 groups (n = 28) and subdivided into 7 time-points (n = 4). […]
Animals were sacrificed by cervical dislocation and decapitation at 5, 15, 30, 60, 120, 240, and 480 min after administration, and heparinized tubes were used for blood collection. Blood samples were centrifuged at 1,252 g for 10 min at 4°C, and plasma supernatants were analyzed by HPLC-DAD. […]
Briefly, 300 μl of methanol were added to 200 μl of plasma, 200 μl of lung homogenate, or 400 μl of brain homogenate for protein precipitation. […] The detection wavelength to quantify the IS was set at 290 nm.

CN(C)CCC[C@@]1(c2ccc(F)cc2)OCc2cc(C#N)ccc21 [Escitalopram, escitalopram oxalate]
DTE (drug targeting efficiency): 98.8% | DTP (direct transport percentage): −1.21%

Structures can show the parent of a compound that is named as a salt.
